Measurements taken from PubChem BioAssay AID1452 (National Center for Advancing Translational Sciences (NCATS), 2008).
The list shows a part of the results, in another mix than the full data. Active and inactive are the calls of the source. Calls follow the shape of the dose curve; as a rule, active = well fitted inhibition curve with a large enough effect; inconclusive = small, poorly fitted or top-dose-only effect; inactive = flat fitted curve, though single readings scatter.

Amino acid sequences for entries named in this document (tags omitted).
UniProt P18054, whole entry: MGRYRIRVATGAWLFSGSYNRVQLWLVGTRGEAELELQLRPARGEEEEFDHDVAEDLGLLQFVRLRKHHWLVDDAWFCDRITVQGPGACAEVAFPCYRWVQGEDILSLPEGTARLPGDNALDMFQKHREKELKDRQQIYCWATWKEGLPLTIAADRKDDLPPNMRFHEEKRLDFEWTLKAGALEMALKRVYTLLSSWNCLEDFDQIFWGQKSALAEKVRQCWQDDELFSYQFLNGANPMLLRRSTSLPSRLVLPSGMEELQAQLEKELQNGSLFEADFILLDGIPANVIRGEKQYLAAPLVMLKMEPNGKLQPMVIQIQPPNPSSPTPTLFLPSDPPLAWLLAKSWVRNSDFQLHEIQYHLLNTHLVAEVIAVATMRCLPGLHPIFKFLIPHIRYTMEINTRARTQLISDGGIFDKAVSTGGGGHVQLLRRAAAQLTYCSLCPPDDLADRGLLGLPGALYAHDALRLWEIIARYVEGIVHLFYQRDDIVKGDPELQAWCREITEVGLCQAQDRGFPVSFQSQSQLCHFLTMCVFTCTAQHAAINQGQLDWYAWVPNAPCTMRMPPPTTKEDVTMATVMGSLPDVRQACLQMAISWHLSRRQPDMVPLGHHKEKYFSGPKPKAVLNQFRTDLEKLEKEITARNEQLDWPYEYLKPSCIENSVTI

The compounds below were run against Polyunsaturated fatty acid lipoxygenase ALOX12 (Homo sapiens) (UniProt P18054) (assay: qHTS Assay for Inhibitors of 12-hLO (12-human lipoxygenase)). Details: purified 12-hLO, xylenol orange hydroperoxide absorbance; at 11.4 µM (top of the series).
Text: Assay Provider: Holman, T.R., University of California, Santa Cruz Screening Center PI: Austin, C.P. Screening Center: NIH Chemical Genomics Center [NCGC] Human lipoxygenase 12hLO is a member of the closely related lipoxygenase family of enzymes which catalyze the site-specific oxidation of arachidonic acid to various hormone precursor molecules and as such is a candidate for drug development in a variety of disease areas, such as cancer and inflammation. Inhibition of 12hLO activity was screened by utilizing arachidonic acid as a substrate. The extent of hydroperoxide product formation was measured by a secondary chromogenic reaction in which xylenol orange (XO, Sigma-Aldrich, cat. number 39,818-7) reacts with the ferric ions produced from the reaction between the hydroperoxide and ferrous ions. The Fe(III)-XO complex is characterized with red-shifted absorbance at 560 nm. A purified preparation of human 12hLO was supplied by Professor Ted Holman, University of California, Santa Cruz.
Assay Protocol: Buffer: 25 mM Hepes pH 7.0, 0.01% Triton X-100. Reagents/Controls: Buffer in columns 3 and 4 as negative control (no enzyme). […] The absorbance at 405 and 573 nm were measured using ViewLux (Perkin-Elmer) High-throughput CCD imager and absorbance protocol settings. The 573-to-405 absorbance ratio was used to compute reaction progress.
% is scaled to controls: 0 for no effect and ±100 for the full control effect.
Also: nearly all actives have a fitted effect of over 55% in size.

**Q.** With NC(=O)Nc1cc([As](=O)(O)O)cc(I)c1O as the compound, how does the activity change, negative = inhibition read?
**A.** inactive: 1.37%
